# Assay results from patent EP2179732A1, “PHARMACEUTICAL COMPOSITION COMBINING AN ENZYME HMG-COA REDUCTASE INHIBITING AGENT AND A GASTROINTESTINAL LIPASE ENZYME INHIBITING AGENT” (Espinosa Abdala, Leopoldo de Jesús, priority 2007, dated 2008).
# Tested on: obese patients with hypercholesterolemia and hypertriglyceridemia
# Test: Clinical comparative study: body weight (body mass index, waist circumference reduction, weight loss)
structure (smiles),measurement,setting,value
CC(C)c1c(C(=O)Nc2ccccc2)c(-c2ccccc2)c(-c2ccc(F)cc2)n1CC[C@@H](O)C[C@@H](O)CC(=O)O [Atorvastatin],IMC (Body Mass Index),1 year,29.3 (1.4) Kg./M^2
same,IMC (Body Mass Index),6 Months,31.3 (1.3) Kg./M^2
